Ab-14 heavy chain CDR variants: yeast mating affinities

Source: Engelhart et al. 2022 (doi:10.1038/s41597-022-01779-4), MIT Lincoln Laboratory and A-Alpha Bio; data file from the FLAb repository.

The target is the same throughout: PDVDLGDISGINAS, from the HR2 region of SARS-CoV-2 spike.

The variants keep the light chain, the linker and the frameworks of Ab-14 (scFv order VH, three GGGGS repeats, VL).
VH: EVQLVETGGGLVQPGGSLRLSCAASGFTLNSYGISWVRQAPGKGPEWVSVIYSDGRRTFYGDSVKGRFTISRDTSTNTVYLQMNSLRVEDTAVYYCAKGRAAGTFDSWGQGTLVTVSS
VL: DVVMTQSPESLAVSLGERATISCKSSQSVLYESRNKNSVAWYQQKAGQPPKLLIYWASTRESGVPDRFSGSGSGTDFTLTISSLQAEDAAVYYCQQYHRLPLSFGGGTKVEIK

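Variants in AAYL49 differ from the parent at up to three CDR positions; double and triple changes were sampled at random. Affinity was read by AlphaSeq, a pooled yeast mating assay with surface-displayed partners. Binding brings cells together so that they mate, and sequencing counts the barcode pairs among the diploids. The ratio of observed to expected reads was calibrated, replicate by replicate, on BCL2-family standards whose Kd was known from biolayer interferometry. Each pool was mated in three replicate cultures.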

Substitutions are numbered in sequence along the VH above, starting at 1 (not Kabat). Values are apparent Kd, the geometric mean of the replicates that gave a signal; lower means stronger binding. An entry "nd" has no value in the source: the pair was not observed among the diploids in any replicate. This suggests poor binding but is not conclusive. As a blank, each scFv also met three strains without target: over library AAYL49, 15% of these pairings were detected, typically at 11 µM and seldom below 680 nM.

| # | changes | apparent Kd | seen in |
|---|---|---|---|
| 1 | G55Q+R56M+Y60P | nd | 0 of 3 |
| 2 | F27H+S63T+D106C | nd | 0 of 3 |
| 3 | T58P+D62V+T104I | nd | 0 of 3 |
| 4 | I34R+I51K+G99W | nd | 0 of 3 |
| 5 | L29C+G55V+G61S | nd | 0 of 3 |
| 6 | T28F+F105C+S107C | 1.3 µM | 3 of 3 |
| 7 | R57G+G61E+G103C | nd | 0 of 3 |
| 8 | G33I+R56V | nd | 0 of 3 |
| 9 | S35V+V64E+R100W | nd | 0 of 3 |
| 10 | Y60S+S63E+V64K | 230 nM | 1 of 3 |
| 11 | I34G+V64G+S107K | 3.3 µM | 3 of 3 |
| 12 | S63A+V64P+F105L | 26 µM | 1 of 3 |
| 13 | F27G+S31G+Y60S | nd | 0 of 3 |
| 14 | D62C+S63E+K65F | 24 µM | 1 of 3 |
| 15 | F27V+I34E+A101M | 5.9 µM | 1 of 3 |
| 16 | T28K+S35T+D62V | nd | 0 of 3 |
| 17 | T58R+A102S+D106R | nd | 0 of 3 |
| 18 | S35F+K65Q+F105G | 78 µM | 1 of 3 |
| 19 | R56N+T58F+T104W | nd | 0 of 3 |
| 20 | S35I+T58F | nd | 0 of 3 |
| 21 | N30L+Y32Q+R100F | 9.9 µM | 3 of 3 |
| 22 | Y60C+G61A+G99D | nd | 0 of 3 |
| 23 | G55E+R56N+A101M | nd | 0 of 3 |
| 24 | F27V+R56A+T104H | 7.5 µM | 1 of 3 |
| 25 | L29D+F105N+S107I | 1.4 mM | 1 of 3 |
| 26 | I51E+Y60T | 940 nM | 1 of 3 |
| 27 | K65I+F105Y+D106S | nd | 0 of 3 |
| 28 | Y32P+Y52L+G103H | nd | 0 of 3 |
| 29 | I34D+F59R+D106N | 460 µM | 2 of 3 |
| 30 | I34N+V50F+I51V | 160 µM | 2 of 3 |
| 31 | K65Q+R100C+A101R | 160 nM | 3 of 3 |
| 32 | Y52R+D54Y+T104P | nd | 0 of 3 |
| 33 | I51P+S63H+F105A | 440 nM | 1 of 3 |
| 34 | D54F+K65D+A102P | nd | 0 of 3 |
| 35 | Y32W+V50S+S53L | 12 µM | 2 of 3 |
| 36 | Y52W+R56W+S107Y | 23 µM | 1 of 3 |
| 37 | G55E+A101T | 8.0 µM | 2 of 3 |
| 38 | S35G+F59L+D106G | nd | 0 of 3 |
| 39 | S63W+G99Y+T104D | nd | 0 of 3 |
| 40 | G26C+V50G+T58P | 43 µM | 2 of 3 |
| 41 | Y32I+I51S+D106I | nd | 0 of 3 |
| 42 | D54V+R56L+S63G | nd | 0 of 3 |
| 43 | F27R+I51R+D106A | 13 µM | 3 of 3 |
| 44 | G55E+A101E+S107R | 25 µM | 2 of 3 |
| 45 | S35N+R56Y+F59V | nd | 0 of 3 |
| 46 | L29E+V64W+A102H | 82 µM | 1 of 3 |
| 47 | Y32A+G61L+G103Q | 330 nM | 3 of 3 |
| 48 | L29Y+A101V | nd | 0 of 3 |
| 49 | Y52P+G55V+G61F | nd | 0 of 3 |
| 50 | S31M+V50G+Y52K | 100 µM | 1 of 3 |
| 51 | G33I+R100L+G103M | nd | 0 of 3 |
| 52 | R100S+A101S+F105R | nd | 0 of 3 |
| 53 | F27G+D62F+V64M | nd | 0 of 3 |
| 54 | S35W+Y60P+T104C | 3.0 µM | 1 of 3 |
| 55 | I51R+R100K | 1.2 µM | 2 of 3 |
| 56 | S35K+Y52D+G61I | 470 µM | 1 of 3 |
| 57 | G33S+V50A+D106A | nd | 0 of 3 |
| 58 | G33A+T58C+F59R | 8.3 nM | 3 of 3 |
| 59 | Y52H+D54K+G55A | nd | 0 of 3 |
| 60 | V64R+G99M+A101C | nd | 0 of 3 |
| 61 | G26I+T104L+F105V | 670 µM | 1 of 3 |
| 62 | G61S+V64E | 6.1 µM | 3 of 3 |
| 63 | Y52P+G55T+F105D | 390 µM | 1 of 3 |
| 64 | S35D+I51S+T104R | 160 µM | 2 of 3 |
| 65 | N30Y+Y60D+D62L | nd | 0 of 3 |
| 66 | Y60T+A101T | 55 nM | 3 of 3 |
| 67 | F27G+N30E+F105S | 54 nM | 3 of 3 |
| 68 | V50P+I51D+Y60A | nd | 0 of 3 |
| 69 | T104S+F105Q+S107L | nd | 0 of 3 |
| 70 | S31W+R56T+G103I | 150 nM | 3 of 3 |
| 71 | S31I+G61W+S107D | 670 µM | 1 of 3 |
| 72 | Y60Q+K65A+G103A | 1.3 µM | 2 of 3 |
| 73 | T28Q+G55M+A102W | nd | 0 of 3 |
| 74 | S31I+D62Y | 46 µM | 1 of 3 |
| 75 | S31N+G33T+G61A | 6.9 µM | 2 of 3 |
| 76 | G33H+D54R+G99F | 22 µM | 2 of 3 |
| 77 | F27M+Y52M+S63Q | nd | 0 of 3 |
| 78 | I34L+R57G+G103K | nd | 0 of 3 |
| 79 | S53F+D54H+S63V | 12 µM | 1 of 3 |

The first 7 entries again:

| changes | apparent Kd | seen in |
|---|---|---|
| G55Q+R56M+Y60P | nd | 0 of 3 |
| F27H+S63T+D106C | nd | 0 of 3 |
| T58P+D62V+T104I | nd | 0 of 3 |
| I34R+I51K+G99W | nd | 0 of 3 |
| L29C+G55V+G61S | nd | 0 of 3 |
| T28F+F105C+S107C | 1.3 µM | 3 of 3 |
| R57G+G61E+G103C | nd | 0 of 3 |

Parent in this assay: reference entry 4.4 nM, copy in this library 13 µM (one replicate of three).